Laboratory results reported in US20230399608A1, “PROCESS FOR ESTABLISHING A HUMAN TESTICULAR TISSUE CULTURE SYSTEM” (PATERNA BIOSCIENCES INC., priority 2021, published 2023).

System: testicular germ cell proliferation
Test: Screen of SSC / differentiating spermatogonia receptor ligands in the iterative culture process
Format: cell-based, human
Conditions: ligand at the concentration listed in Table 5; effective to date at improving germ cell proliferation
Text: A process for identification and selection of receptor ligands capable of improving testicular germ cell proliferation was developed. The process uses expression data obtained by mining scRNA-seq data obtained from testicular tissue (FIG. 27). The process systematically prioritizes candidates for spermatogonia ligands through a series of bioinformatics analyses and filtering. The process comprises identifying and selecting potential ligands based on their receptor expression in State 1 SSCs (active stem cells) and State 2/3 differentiating spermatogonia (differentiated germ cells with strong proliferation ability), or any combination thereof.
More specifically, the approach was based on the single-cell RNA sequencing transcriptome profile of the adult human testis atlas (Guo, J., Grow, E. J., Mlcochova, H., Maher, G. J., Lindskog, C., Nie, X., Guo, Y., Takei, Y., Yun, J., Cai, L., et al. (2018). The adult human testis transcriptional cell atlas. Cell Research 28, 1141. 10.1038/s41422-018-0099-2; the disclosure of all of which is incorporated herein in its entirety), which provides a comprehensive characterization of cell types in the human adult testis. Pseudo-bulk RNA-seq analysis was used, which involves aggregating individual cells into groups to enhance the receptor gene expression signal on SSCs and differentiating spermatogonia. […]

B1: BMP2: ligand of BMPR1B/BMPR1A/BMPR2 (protein, UniProt P12643 283-396, looked up)
Bone morphogenetic protein 2: QAKHKQRKRLKSSCKRHPLYVDFSDVGWNDWIVAPPGYHAFYCHGECPFPLADHLNSTNHAIVQTLVNSVNSKIPKACCVPTELSAISMLYLDENEKVVLKNYQDMVVEGCGCR
In the case of B1, the Effective is reported as “Yes”.
